Values of other authors in patent publication US11484575B2, “Compositions and methods comprising bone morphogenetic protein and NEMO binding peptide” (Cedars-Sinai Medical Center, priority 2018, dated 2022).

System: spine fusion
Details: total dose of 30 μg rhBMP-2/side/rat; cited from earlier work

For “rhBMP-2: Recombinant human bone morphogenic protein-2 used to enhance bone formation in spine surgery”, the spine fusion is listed as 100%.
